Several values for one entry are separate records, joined by “and”; a condition that tells them apart may be missing. Identical values can stand only once. The entries are a selection whose mix differs from that of the whole data set.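 48-hour exposure, single concentration, 96-well plates; percent growth endpoint where 0 means no net growth. Active: below 10.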 Activity calls are given as the source filed them.
Tests used:
Assay in all cases: NCI-60 one-dose screen, 48 h (100 = growth as untreated, 0 = no growth, -100 = all killed)
Details in all cases: 10 µM
[1] = system: SK-MEL-2 melanoma
[2] = system: EKVX NSCLC
[3] = system: SN12C renal
[4] = system: UO-31 renal
[5] = system: TK-10 renal
[6] = system: ACHN renal
[7] = system: CAKI-1 renal
[8] = system: HL-60(TB) leukemia
[9] = system: CCRF-CEM leukemia
[10] = system: A498 renal

Compound | growth [1] | growth [2] | growth [3] | growth [4] | growth [5] | growth [6] | growth [7] | growth [8] | growth [9] | growth [10]
O=C1C(O)=C([N+](=O)[O-])C(=O)C(O)=C1[N+](=O)[O-] | inactive: 102% | inactive: 101% | inactive: 103% | inactive: 68.1% | inactive: 100% | inactive: 99.3% | inactive: 92.2% | inactive: 102% | inactive: 96.8% | –
Nc1cc([As](Cl)Cl)cc(N)c1O | inactive: 89.9% | inactive: 55.9% | inactive: 80.2% | inactive: 83% | inactive: 76.1% | inactive: 97.8% | inactive: 60.8% | inactive: 62.6% | inactive: 20.7% | inactive: 83.2%
CCN(CC)CCOC(=O)C(O)(c1ccccc1)c1cc(C)cc(C)c1C (stereo unspecified) | inactive: 112% | inactive: 92.7% | inactive: 97.6% | inactive: 79.2% | inactive: 106% | inactive: 100% | inactive: 89.6% | inactive: 91.6% | inactive: 105% | inactive: 88.3%
O=[N+]([O-])c1cc([N+](=O)[O-])c(Oc2ccccc2)c([N+](=O)[O-])c1 | inactive: 105% | inactive: 97.1% | inactive: 98.6% | inactive: 84% | inactive: 115% | inactive: 107% | inactive: 90% | inactive: 99.3% | inactive: 91.9% | inactive: 100%
O=C(OCCN1CCCCCCCC1)C(O)(c1ccccc1)c1ccccc1 | inactive: 105% | inactive: 109% | inactive: 98.3% | inactive: 88.5% | inactive: 103% | inactive: 93.6% | inactive: 101% | inactive: 100% | inactive: 109% | inactive: 106%
Cc1ccc(Nc2c([N+](=O)[O-])cc([N+](=O)[O-])cc2[N+](=O)[O-])cc1 | inactive: 106% | inactive: 83% | inactive: 89% | inactive: 62.9% | inactive: 113% | inactive: 77.2% | inactive: 80% | inactive: 94% | inactive: 76.3% | inactive: 76.7%
Nc1cccc(Cl)c1.O=[N+]([O-])c1cc([N+](=O)[O-])c(O)c([N+](=O)[O-])c1 | inactive: 102% | inactive: 90.7% | inactive: 93.7% | inactive: 75.5% | inactive: 107% | inactive: 96.6% | inactive: 91% | inactive: 84.9% | inactive: 88.4% | inactive: 109%
O=C(O)C1(O)c2ccccc2-c2ccccc21 | inactive: 101% and inactive: 97.4% | inactive: 91% | inactive: 86.7% and inactive: 83.4% | inactive: 84.5% and inactive: 86.6% | inactive: 89.8% and inactive: 122% | inactive: 109% and inactive: 105% | inactive: 106% | inactive: 73.4% and inactive: 70.7% | inactive: 104% | inactive: 104% and inactive: 92.2%
CN/C(N)=N/[N+](=O)[O-] | inactive: 103% | inactive: 112% | inactive: 97.6% | inactive: 87% | inactive: 97.5% | inactive: 99.3% | inactive: 105% | inactive: 97.5% | inactive: 102% | inactive: 88.9%
Nc1cc([N+](=O)[O-])cc([N+](=O)[O-])c1O | inactive: 100% and inactive: 97.6% | inactive: 100% and inactive: 98% | inactive: 97% and inactive: 98.5% | inactive: 93.4% and inactive: 101% | inactive: 101% and inactive: 93.7% | inactive: 99.6% and inactive: 113% | – | inactive: 94% and inactive: 96.8% | inactive: 103% and inactive: 96.7% | inactive: 131% and inactive: 108%
O=[N+]([O-])c1ccc(Oc2c([N+](=O)[O-])cc([N+](=O)[O-])cc2[N+](=O)[O-])cc1 | inactive: 109% | inactive: 94.2% | inactive: 113% | inactive: 86.6% | inactive: 123% | inactive: 103% | inactive: 94.3% | inactive: 105% | inactive: 104% | inactive: 88.7%
O=[N+]([O-])c1cc([N+](=O)[O-])c(O)c([N+](=O)[O-])c1.c1ccc(Cc2ccncc2)cc1 | inactive: 116% | inactive: 107% | inactive: 101% | inactive: 97.5% | inactive: 96.4% | inactive: 103% | inactive: 99.9% | inactive: 124% | inactive: 116% | inactive: 90.4%
CC[N+](C)(CC)Cc1cc(Cc2ccccc2)ccc1OC(=O)N(C)C | inactive: 125% | inactive: 94.2% | inactive: 97.6% | inactive: 91.1% | inactive: 106% | inactive: 99.9% | inactive: 103% | inactive: 96.6% | inactive: 102% | inactive: 94.7%
Cc1c([N+](=O)[O-])c(C)c([N+](=O)[O-])c(C)c1[N+](=O)[O-] | inactive: 109% | inactive: 83.7% | inactive: 111% | inactive: 78.8% | inactive: 104% | inactive: 98.4% | inactive: 92.7% | inactive: 105% | inactive: 98.7% | inactive: 106%
OCCSCCO | inactive: 105% | inactive: 96.7% | inactive: 95% | inactive: 82.6% | inactive: 105% | inactive: 105% | inactive: 86.8% | inactive: 89.9% | inactive: 110% | –
COc1ccc(C(O)(C(=O)OCCN2CCCCC2)c2ccc(OC)cc2)cc1 | inactive: 104% | inactive: 101% | inactive: 112% | inactive: 82.4% | inactive: 111% | inactive: 96.7% | inactive: 87.4% | inactive: 125% | inactive: 94.3% | inactive: 87.6%
O=[N+]([O-])c1ccc(OP2(=O)COCCO2)cc1 (stereo unspecified) | inactive: 109% | inactive: 97.7% | inactive: 96% | inactive: 93.9% | inactive: 115% | inactive: 105% | inactive: 100% | inactive: 91.5% | inactive: 95.9% | inactive: 108%
O=[N+]([O-])OCC(O[N+](=O)[O-])C(CO[N+](=O)[O-])O[N+](=O)[O-] (stereo unspecified) | inactive: 102% | inactive: 121% | inactive: 105% | inactive: 79.4% | inactive: 121% | inactive: 107% | inactive: 112% | inactive: 115% | inactive: 104% | –
O=C(Cl)c1c([N+](=O)[O-])cc([N+](=O)[O-])cc1[N+](=O)[O-] | inactive: 109% | inactive: 86.6% | inactive: 83.1% | inactive: 67.5% | inactive: 103% | inactive: 28.9% | active: -14.2% | inactive: 27.3% | inactive: 39.5% | inactive: 114%
O=[N+]([O-])c1cc([N+](=O)[O-])c(Nc2ccc(Cl)cc2)c([N+](=O)[O-])c1 | inactive: 94.7% | inactive: 36.5% | inactive: 26.3% | active: 8.3% | inactive: 40.4% | inactive: 31.8% | inactive: 20.6% | active: -19.4% | active: 5.99% | inactive: 66.1%
CN(C)CCS | inactive: 119% and inactive: 112% | inactive: 88.6% | inactive: 97.4% and inactive: 103% | inactive: 98.7% and inactive: 72.4% | inactive: 121% and inactive: 110% | inactive: 117% and inactive: 100% | inactive: 104% | inactive: 114% and inactive: 99.9% | inactive: 97.3% and inactive: 104% | inactive: 111%
CCN(CC)CCOC(=O)C(O)(c1ccccc1)c1cc(C)c(C)c(C)c1C (stereo unspecified) | inactive: 109% | inactive: 89.9% | inactive: 102% | inactive: 50.7% | inactive: 101% | inactive: 90.1% | inactive: 81.5% | inactive: 82.8% | inactive: 96.7% | inactive: 88.9%
CC(C)N(CCCl)C(C)C | inactive: 120% | inactive: 121% | inactive: 99.7% | inactive: 98.2% | inactive: 118% | inactive: 106% | inactive: 97.4% | inactive: 116% | inactive: 102% | inactive: 82.6%
n1nc(-c2nn[nH]n2)n[nH]1 | inactive: 98.5% | inactive: 117% | inactive: 101% | inactive: 81.8% | inactive: 127% | inactive: 108% | inactive: 98.2% | inactive: 102% | inactive: 89.5% | inactive: 100%

Reference: PubChem BioAssay (NCI)
